As usually defined, the kcat is the maximal rate divided by the concentration of active sites.

Our source for the kcat values is publication PMC3870192.

Series [1] has as its system COc1cccc2[nH]cc(C[C@H](N)C(=O)O)c12. Briefly: purified protein. Format: biochemical, Plenodomus lingam. The conditions noted are these: 1 mM [1-14C]DMAPP, 100 mM Tris-HCl pH 8.0, 2% glycerol, 30 °C.
Series [2] relates to Cc1cccc2c(C[C@H](N)C(=O)O)c[nH]c12. Briefly: purified protein. Format: biochemical, Plenodomus lingam. The conditions noted are these: 1 mM [1-14C]DMAPP, 100 mM Tris-HCl pH 8.0, 2% glycerol, 30 °C.

Consider “SirD (tyrosine O-prenyltransferase; dimethylallyltyrosine synthase) (Plenodomus lingam)”, for which the catalytic constant (kcat) in series [1] turned out to be 0.013 ± 0.003 s⁻¹; in series [2], 0.013 ± 0.001 s⁻¹.
